Drawing on published antibiotic growth screens (doi:10.1038/s41589-023-01349-8), this text covers relative growth for 26 compounds.

The list shows a part of the results.

The subject of this test is A. baumannii ATCC 17978. The test is described as follows: relative growth (fraction of control); higher = less inhibition. Particulars: 50 µM.
`O=c1c(O)c(-c2ccccc2)oc2ccccc12` gave a relative growth of 0.963.
`C[C@@H](NC(=O)C[C@H]1C=C[C@H](NC(=O)CN2CCOCC2)[C@@H](CO)O1)c1ccccc1` came in with a relative growth of 1.11.
Consider `Nc1ccc(NC(=O)CCN2CCOCC2)cc1`, for which the relative growth came to 0.973.
On to `CCN[C@@H]1C[C@H](N)[C@@H](O[C@H]2OC(CN)=CC[C@H]2N)[C@H](O)[C@H]1OC1OC[C@](C)(O)[C@H](NC)[C@H]1O.O=S(=O)(O)O.O=S(=O)(O)O` (stereo partly specified), for which the relative growth is 1.17.
As to `C[C@@H]1CN([C@@H](C)CO)C(=O)CCCn2nncc2CO[C@H]1CN(C)Cc1cccc2c1OCCCO2`, the relative growth came out at 1.15.
The value for `COc1cccc(S(=O)(=O)Nc2ccc3c(c2)[C@@H]2C[C@H](CC(=O)NCC(F)(F)F)O[C@@H](CO)[C@@H]2O3)c1` was 0.976.
`O=C1CC[C@@H](C(=O)O)N1` yielded a relative growth of 0.993.
Consider `COCCNC(=O)C[C@@H]1CC[C@@H]2[C@H](COC[C@H](O)CN2S(=O)(=O)c2ccccc2C)O1`, for which the relative growth came to 0.952.
In turn, `CC(=O)N1CCN(c2ccc(OCC3CO[C@](Cn4ccnc4)(c4ccc(Cl)cc4Cl)O3)cc2)CC1` (stereo partly specified) had a relative growth of 0.746.
`O=C(NCCCn1ccnc1)C(=O)NC[C@H]1OCCN1S(=O)(=O)c1ccc(F)cc1` yielded a relative growth of 1.01.
As for `O=C(CN1CCOCC1)N[C@@H]1CC[C@H](CCNS(=O)(=O)c2ccccc2F)O[C@@H]1CO`, the relative growth was 1.14.
On to `O=C(O)CCCNC(=O)c1cncc(O)c1`, for which the relative growth came out at 1.13.
The compound `COc1cccc(NC(=O)N2C[C@@H](O)COC[C@@H]3O[C@@H](CC(=O)NCCCN4CCOCC4)CC[C@H]32)c1` had a relative growth of 0.953.
Compound `CN(C)Cc1cn(CC[C@H]2CC[C@@H](NC(=O)Cc3cccnc3)[C@H](CO)O2)nn1` had a relative growth of 0.937.
In turn, `CCOc1ccccc1C(N)=O` had a relative growth of 0.967.
Turning to `CN(C)c1ccc2nc3ccc(N(C)C)cc3[s+]c2c1.O.[Cl-]`, the relative growth is 1.18.
Consider `O=C(NCCCN1CCOCC1)c1cccnc1`, for which the relative growth turned out to be 1.06.
`Cc1ccc2nc(Nc3ccccc3)nc(-c3ccccc3)c2c1` came in with a relative growth of 1.22.
Consider `O=C(C[C@@H]1CC[C@@H]2[C@H](COC[C@H](O)CN2S(=O)(=O)c2ccccc2)O1)NCCN1CCCC1`, for which the relative growth was 0.942.
As to `CN1C=C(C(=O)OCCS(C)(=O)=O)C(C(=O)OCCS(C)(=O)=O)=CC(CCCO)=C[C@@H]1C1CC1`, the relative growth was found to be 1.08.
Compound `CCC(=O)NO` returned a relative growth of 0.914.
As for `CC(C)(C)c1ccc(OC[C@@H](O)CN)cc1`, the figure is 0.768; as for `O=C(C[C@H]1C=C[C@@H](NC(=O)CN2CCOCC2)[C@@H](CO)O1)NCCc1ccncc1`, 1.02.
The compound `NS(=O)(=O)c1ccc(C(=O)O)cc1` came in with a relative growth of 0.949.
With `O=C(C[C@@H]1CC[C@H]2[C@@H](COC[C@@H](O)CN2S(=O)(=O)c2ccccc2)O1)NCc1ccc2c(c1)OCO2`, the relative growth stood at 1.02.
As to `O=C(C[C@H]1CC[C@@H]2[C@H](COC[C@@H](O)CN2S(=O)(=O)c2ccc(Cl)cc2)O1)N[C@H]1CCN(Cc2ccccc2)C1`, the relative growth was 1.04.
